# Reference: US8512965B2, “Methods of identifying ligands to sour-taste receptors comprising PKD1L3 and PKDPKD2L1” (Duke University, priority 2006, dated 2013)
# Protein sequences, listed by entry. Tags and fused reporters are not part of them. Lines headed by an entry give the natural chain unless they say otherwise; changes in a name come on top.
# UniProt A2A259: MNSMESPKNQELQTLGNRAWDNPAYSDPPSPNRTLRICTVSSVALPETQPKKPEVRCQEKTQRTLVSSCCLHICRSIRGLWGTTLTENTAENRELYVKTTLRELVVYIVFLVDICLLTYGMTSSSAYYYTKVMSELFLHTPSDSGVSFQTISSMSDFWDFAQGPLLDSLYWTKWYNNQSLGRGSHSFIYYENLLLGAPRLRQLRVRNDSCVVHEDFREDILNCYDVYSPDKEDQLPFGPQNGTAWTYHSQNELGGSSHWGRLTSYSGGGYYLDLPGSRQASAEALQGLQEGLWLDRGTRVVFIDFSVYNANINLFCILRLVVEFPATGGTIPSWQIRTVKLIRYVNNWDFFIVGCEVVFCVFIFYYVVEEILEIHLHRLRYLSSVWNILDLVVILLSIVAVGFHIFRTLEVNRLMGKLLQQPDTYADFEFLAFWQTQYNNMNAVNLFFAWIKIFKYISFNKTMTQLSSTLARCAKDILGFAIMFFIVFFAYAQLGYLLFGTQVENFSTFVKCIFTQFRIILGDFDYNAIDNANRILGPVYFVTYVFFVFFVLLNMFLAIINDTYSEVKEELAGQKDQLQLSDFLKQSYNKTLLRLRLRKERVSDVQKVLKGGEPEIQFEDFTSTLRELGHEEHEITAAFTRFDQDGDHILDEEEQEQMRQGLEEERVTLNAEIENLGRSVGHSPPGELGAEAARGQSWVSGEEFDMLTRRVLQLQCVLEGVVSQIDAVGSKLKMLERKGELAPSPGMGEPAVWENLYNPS
# UniProt Q2EG98: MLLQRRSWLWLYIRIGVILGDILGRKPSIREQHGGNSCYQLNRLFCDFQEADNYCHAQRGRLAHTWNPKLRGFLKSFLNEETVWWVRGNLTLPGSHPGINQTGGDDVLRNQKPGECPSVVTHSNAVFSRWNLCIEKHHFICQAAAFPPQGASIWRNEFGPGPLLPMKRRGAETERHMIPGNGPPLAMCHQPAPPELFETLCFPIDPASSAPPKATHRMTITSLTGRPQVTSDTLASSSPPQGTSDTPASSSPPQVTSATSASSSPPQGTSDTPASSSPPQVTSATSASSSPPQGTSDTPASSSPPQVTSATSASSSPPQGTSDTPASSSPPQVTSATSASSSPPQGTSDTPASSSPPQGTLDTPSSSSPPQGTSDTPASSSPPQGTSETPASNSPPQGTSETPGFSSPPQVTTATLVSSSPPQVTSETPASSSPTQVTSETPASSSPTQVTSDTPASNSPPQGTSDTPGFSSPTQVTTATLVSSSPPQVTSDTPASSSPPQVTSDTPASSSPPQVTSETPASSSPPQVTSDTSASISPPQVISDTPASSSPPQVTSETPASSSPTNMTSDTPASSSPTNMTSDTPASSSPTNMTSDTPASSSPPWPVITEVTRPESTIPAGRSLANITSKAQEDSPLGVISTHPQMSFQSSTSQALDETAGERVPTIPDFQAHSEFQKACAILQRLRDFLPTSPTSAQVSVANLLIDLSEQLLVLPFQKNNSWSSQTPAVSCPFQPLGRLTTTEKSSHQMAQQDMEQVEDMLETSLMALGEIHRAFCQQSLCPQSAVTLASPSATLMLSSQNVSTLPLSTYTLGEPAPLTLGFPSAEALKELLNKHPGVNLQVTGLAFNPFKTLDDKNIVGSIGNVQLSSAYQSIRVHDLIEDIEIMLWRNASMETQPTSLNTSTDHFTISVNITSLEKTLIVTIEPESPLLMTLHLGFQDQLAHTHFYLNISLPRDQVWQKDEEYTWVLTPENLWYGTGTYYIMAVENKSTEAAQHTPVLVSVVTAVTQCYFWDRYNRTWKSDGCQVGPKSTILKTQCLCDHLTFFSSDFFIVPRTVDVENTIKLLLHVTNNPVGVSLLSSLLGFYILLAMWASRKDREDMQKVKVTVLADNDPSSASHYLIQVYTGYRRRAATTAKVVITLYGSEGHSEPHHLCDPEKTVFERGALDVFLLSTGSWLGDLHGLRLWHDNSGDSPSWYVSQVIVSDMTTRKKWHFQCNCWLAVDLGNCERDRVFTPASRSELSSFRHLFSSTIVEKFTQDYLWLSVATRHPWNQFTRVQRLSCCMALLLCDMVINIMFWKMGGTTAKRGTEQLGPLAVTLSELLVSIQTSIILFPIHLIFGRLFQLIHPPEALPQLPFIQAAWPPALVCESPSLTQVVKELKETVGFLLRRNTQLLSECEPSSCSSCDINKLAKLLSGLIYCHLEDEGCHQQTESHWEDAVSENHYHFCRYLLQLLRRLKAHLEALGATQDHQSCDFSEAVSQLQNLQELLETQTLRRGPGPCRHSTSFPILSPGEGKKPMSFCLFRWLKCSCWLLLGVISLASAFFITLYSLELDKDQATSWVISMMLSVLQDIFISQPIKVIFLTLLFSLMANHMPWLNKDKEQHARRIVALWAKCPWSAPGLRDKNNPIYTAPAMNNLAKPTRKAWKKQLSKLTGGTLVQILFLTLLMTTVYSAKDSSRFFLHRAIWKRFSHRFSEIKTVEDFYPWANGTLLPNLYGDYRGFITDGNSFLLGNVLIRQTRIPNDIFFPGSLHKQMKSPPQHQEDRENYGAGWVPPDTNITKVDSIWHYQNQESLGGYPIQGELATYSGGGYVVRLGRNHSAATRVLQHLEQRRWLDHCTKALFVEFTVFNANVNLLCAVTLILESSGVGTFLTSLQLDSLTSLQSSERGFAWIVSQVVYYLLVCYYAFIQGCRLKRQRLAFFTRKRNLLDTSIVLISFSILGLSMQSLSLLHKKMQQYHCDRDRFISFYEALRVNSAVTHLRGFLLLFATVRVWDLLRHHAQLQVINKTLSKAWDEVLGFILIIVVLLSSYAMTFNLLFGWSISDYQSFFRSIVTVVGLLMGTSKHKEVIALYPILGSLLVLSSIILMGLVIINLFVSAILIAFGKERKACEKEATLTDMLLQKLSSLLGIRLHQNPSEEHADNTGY
# Target: PKD1L3/PKD2L1 (Mus musculus, UniProt A2A259+Q2EG98, I1053S/I114V/I482V/L203V/Q202H/Y438D)
# Assay: Calcium imaging (fluo-4/fura-red) of HEK293T cells transiently co-expressing PKD1L3 and PKD2L1
# Type: cell-based, murine
# Conditions: cells expressing both PKD1L3 and PKD2L1; citric acid 25 mM, pH 2.6; hydrochloric acid at the same pH
substance,measurement,value
I-glutamate,calcium response upon stimulation,did not respond
